## Yeast mating assay 2: variants of the scFv Ab-95

The measurements come from Engelhart et al. 2022 (doi:10.1038/s41597-022-01779-4) through the FLAb antibody collection.

Target peptide (SARS-CoV-2 spike, HR2 region): PDVDLGDISGINAS

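The parent was found by panning a naive human phage display library on the peptide. The library (AAYL52) carries one to three amino acid substitutions per variant, with no insertions or deletions. Affinity was read by AlphaSeq, a pooled yeast mating assay with surface-displayed partners. Pairs that bind mate more often; barcode pairs of the diploids are counted by sequencing. Each replicate has its own calibration line, from reference interactions of the BCL2 family. The assay was run in three technical replicates.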

Ab-95 is the parent antibody, in scFv form: VH, then a (GGGGS)3 linker, then VL. The heavy chain is unchanged in all variants.
VH: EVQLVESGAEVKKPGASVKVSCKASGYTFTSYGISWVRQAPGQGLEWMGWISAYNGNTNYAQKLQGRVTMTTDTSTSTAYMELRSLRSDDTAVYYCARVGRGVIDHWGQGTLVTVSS
VL: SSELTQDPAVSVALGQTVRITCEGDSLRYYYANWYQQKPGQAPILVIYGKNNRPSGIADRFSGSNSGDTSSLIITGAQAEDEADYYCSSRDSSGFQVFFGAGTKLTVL

Positions count from residue 1 of the parent VL; L27T puts T in place of L.
Values are log10 of the apparent Kd in nM; lower means stronger binding.
An entry "nd" has no value in the source: the pair was not observed among the diploids in that replicate. This suggests poor binding but is not conclusive.

| # | changes | log10 Kd (nM) by replicate | signal with controls |
|---|---|---|---|
| 1 | L27T+N51I+S89G | nd / nd / nd | 3 of 9 (2.62) |
| 2 | A32Q+N51P+F98I | 3.83 / nd / nd | 2 of 9 (3.99) |
| 3 | E23L+V97H | nd / 2.99 / 3.58 | 2 of 9 (3.93) |
| 4 | G94T+F95G+Q96W | 3.29 / 3.10 / 2.94 | 4 of 9 (4.87) |
| 5 | S26Y+N51D+S93I | 4.14 / nd / 2.59 | 0 of 9 |
| 6 | G24I+Y29L+D91A | 4.78 / 3.08 / 2.98 | 2 of 9 (4.29) |
| 7 | D25N+K50D+R90S | 4.21 / 4.24 / 3.81 | 3 of 9 (4.64) |
| 8 | S55Y+S92E+S93E | 3.22 / 2.73 / 3.25 | 1 of 9 (4.11) |
| 9 | S92I+F95I+Q96V | nd / nd / nd | 1 of 9 (3.52) |
| 10 | G24M+L27T+G49V | nd / nd / 4.10 | 3 of 9 (4.14) |
| 11 | R28W+Q96F+F98A | 4.60 / nd / 3.67 | 1 of 9 (4.65) |
| 12 | S26A+R28W+F98H | 3.44 / 2.97 / 2.26 | 6 of 9 (4.04) |
| 13 | N51S+D91P+S92P | 2.67 / 3.42 / 3.71 | 3 of 9 (3.33) |
| 14 | Y29P+Y31T+G49I | nd / nd / nd | 1 of 9 (3.51) |
| 15 | N33W+N51I+N52W | nd / 3.78 / nd | 2 of 9 (4.23) |
| 16 | S26I+P54S+S92Q | 3.24 / nd / 2.62 | 5 of 9 (3.82) |
| 17 | A32N+S89M+S93M | 2.98 / 3.28 / nd | 2 of 9 (3.91) |
| 18 | E23H+G24M+K50N | 1.99 / 2.07 / 1.81 | 5 of 9 (4.52) |
| 19 | N33I+S92E+V97P | 4.44 / nd / 4.13 | 3 of 9 (3.12) |
| 20 | D25I+S92W | 3.84 / 3.25 / nd | 5 of 9 (3.99) |
| 21 | K50H+R90L+G94Y | 2.91 / 2.65 / 1.86 | 3 of 9 (3.71) |
| 22 | Q96T | 2.86 / 2.14 / 2.01 | 2 of 9 (3.12) |
| 23 | D25F+Y31T+F95W | 3.55 / 2.99 / 2.88 | 5 of 9 (4.21) |
| 24 | Y29N+Y30V+R53N | 2.79 / 2.70 / 2.42 | 3 of 9 (3.81) |
| 25 | R53C+R90E+S92H | 2.98 / 4.74 / 4.22 | 2 of 9 (3.94) |
| 26 | G49W+S88M+S89F | nd / nd / nd | 0 of 9 |
| 27 | N52C+D91K+F95G | 3.91 / nd / nd | 3 of 9 (4.17) |
| 28 | S88H+G94H+Q96F | 2.09 / 3.07 / 1.81 | 3 of 9 (3.67) |
| 29 | L27P+Y29Q+A32V | 3.38 / 3.40 / 2.97 | 5 of 9 (4.18) |
| 30 | S88R+D91Q+G94I | 2.53 / 2.65 / 2.35 | 1 of 9 (3.34) |
| 31 | N33C+R53C+V97R | 4.23 / nd / 4.13 | 4 of 9 (3.79) |
| 32 | Y29D+S55Q+V97W | 2.43 / 3.54 / 2.30 | 6 of 9 (4.30) |
| 33 | L27H+R53M+D91Q | 4.94 / nd / nd | 4 of 9 (3.96) |
| 34 | R28H+Y29Q+G49W | 3.47 / nd / nd | 1 of 9 (3.32) |

Excerpt, the final 4 entries:

| changes | log10 Kd (nM) by replicate | signal with controls |
|---|---|---|
| N33C+R53C+V97R | 4.23 / nd / 4.13 | 4 of 9 (3.79) |
| Y29D+S55Q+V97W | 2.43 / 3.54 / 2.30 | 6 of 9 (4.30) |
| L27H+R53M+D91Q | 4.94 / nd / nd | 4 of 9 (3.96) |
| R28H+Y29Q+G49W | 3.47 / nd / nd | 1 of 9 (3.32) |

Background: pairings of library AAYL52 with three empty control strains gave a value in 28% of cases (median 3.91, 5th percentile 2.90). Values in that range, when seen in few replicates, are hard to tell from nonspecific mating. The control count says in how many pairings with the empty strains this scFv gave a signal, with their mean in brackets.
In this assay the parent's reference entry averaged 2.31; its copy inside this library read 2.25.